Antibody variant affinities, Ab-95 light chain, assay 2

The measurements come from Engelhart et al. 2022 (doi:10.1038/s41597-022-01779-4) through the FLAb antibody collection.

Target peptide (SARS-CoV-2 spike, HR2 region): PDVDLGDISGINAS

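The parent was found by panning a naive human phage display library on the peptide. Library AAYL52 holds single substitutions and randomly drawn double and triple substitutions in the CDRs. The assay is AlphaSeq: two haploid yeast populations carry antibody and antigen on their surface. After mating in shaken culture at 30 °C for 16 h, diploids were selected and their barcode pairs sequenced. Scores were corrected for input abundance and mapped to Kd with protein pairs of known affinity run in the same pool. Mating was done three times.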

The variants keep the heavy chain, the linker and the frameworks of Ab-95 (scFv order VH, three GGGGS repeats, VL).
VH: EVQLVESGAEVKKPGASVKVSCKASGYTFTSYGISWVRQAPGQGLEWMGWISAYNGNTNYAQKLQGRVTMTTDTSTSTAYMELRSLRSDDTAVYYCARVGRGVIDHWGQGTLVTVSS
VL: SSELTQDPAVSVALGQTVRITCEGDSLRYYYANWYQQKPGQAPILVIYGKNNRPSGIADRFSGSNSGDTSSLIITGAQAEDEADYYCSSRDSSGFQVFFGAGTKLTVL

The parent's light chain CDRs are EGDSLRYYYAN, GKNNRPS, SSRDSSGFQVF; each variant's own CDRs replace them letter for letter. Numbers give log10(Kd / nM), so 0 is 1 nM and 3 is 1 µM. Smaller is tighter. Averages over replicates are reported, and they cover detected replicates only. "not detected" means that the variant was in the library but no mating with the target was seen in any replicate; the authors take this as a sign of poor binding, and no number exists. Empty control strains, which show no peptide, gave a signal in 28% of pairings with library AAYL52; the median was 3.91 and 95% of these signals were weaker than 2.90. No background was subtracted.

CDR-L1 | CDR-L2 | CDR-L3 | mean, log10 nM | replicates with signal
EGDSLRYYTQN | GKNNRPS | SSRDVSGFQVF | 4.12 | 1/3
EGDLLRYYYAN | GKNNRPS | SSRDSSGFDVF | 3.72 | 2/3
EGDSLRYYKAN | KKNNRPS | SHRDSSGFQVF | 4.04 | 2/3
IGDSLQYYEAN | GKNNRPS | SSRDSSGFQVF | 1.40 | 3/3
EGNSHRYYYAK | GKNNRPS | SSRDSSGFQVF | 4.58 | 1/3
EGDSLDYYYAN | GWNNRPS | SSRDSSGWQVF | 3.74 | 3/3
EGDSLRYYYAN | GCNNRPS | STRDCSGFQVF | 3.29 | 3/3
EGDSLVYYYAN | GKNNRAS | SSRDVSGFQVF | 2.46 | 3/3
EGDSLRYYPAN | GKDNRPS | SSRDSSGFQVH | 1.66 | 3/3
EGDSRRWYYAN | GKPNRPS | SSRDSSGFQVF | 3.48 | 2/3
EGDSLRYYYAN | GSNNMPS | SSRDSSGFQMF | 4.60 | 2/3
EGDSLRYRYAN | GKNNRPS | ESRDSSGFQVE | 3.17 | 3/3
EGDSRRYYYAN | GKNNRPS | SSRDSSGFQVS | 3.58 | 1/3
EGSSLRYYYAN | GKNNTPS | SSRDSSYFQVF | 2.60 | 3/3
EGDHLRYYYAN | GKNNRPF | SSRDSSGFQVR | 3.42 | 3/3
EGSSLRYYYAN | GKNGRPS | VSRDSSGFQVF | 2.83 | 3/3
EGDSLRYYYAN | GKNNRPS | PSFDSSGHQVF | 2.82 | 3/3
EGDILRYYYAN | GKNNRSS | SSRDQSGFQVF | 2.93 | 2/3
EGDSLRYYYAN | GKNNRPY | SSRDSSGFQVK | 2.91 | 3/3
VGDSLRYYYAN | GKNNRPS | SSRDSSGFQAC | 5.73 | 1/3
EGDSLRYYYAY | GKNKRPS | SSDDSSGFQVF | 4.75 | 1/3
QGDSLRYSYAR | GKNNRPS | SSRDSSGFQVF | 1.23 | 3/3
EGDSLRYYYEN | GKNNRPS | SSRCSSGFAVF | 5.66 | 1/3
EPDSLRYYYAN | GKNNRPR | SSRDSDGFQVF | 3.64 | 2/3
EGDSLMYYYAN | GKNNRPS | SKRDSSCFQVF | not detected | 0/3
EGDSLRFYYNN | GKNNRPS | SSADSSGFQVF | 3.67 | 2/3
EGDSLRYYYAN | GKNNEPS | SSRDPEGFQVF | 4.10 | 1/3
EGDSLGYYYAS | GKNNRPS | SSRDSSAFQVF | 3.66 | 2/3
EFNSLRYYYAN | GKNNRPS | SSRDSSWFQVF | 3.68 | 1/3
EGDSLRYYYAN | MKNNRPS | SSDDSSGFQHF | 3.87 | 2/3
KLDSLRYYYAN | KKNNRPS | SSRDSSGFQVF | not detected | 0/3
EGDSLRCYYYN | GKNNRPS | SSNDSSGFQVF | not detected | 0/3
EGDSLRYYYAG | GKNNRQS | SSRDSSGQQVF | not detected | 0/3
EGDSLRYPYAN | WKNNRPS | SSRDSSGLQVF | 3.76 | 1/3
EGYSLRYYYAN | GKNTFPS | SSRDSSGFQVF | 4.07 | 1/3
EGDSLWYYYAS | GKNNRPS | SSRDSSGNQVF | not detected | 0/3
EGDSLRYYYYN | GKNNRPS | SSRDSICFQVF | 4.21 | 3/3
ENDSPRYYYAN | GHNNRPS | SSRDSSGFQVF | 4.18 | 2/3
EGDSLRYYYAN | GKNNRLS | SNRDSKGFQVF | 2.82 | 3/3
EGDSLAIYYAN | GKNNRPF | SSRDSSGFQVF | not detected | 0/3
EGDSLRTYLAN | GKNNRPS | SGRDSSGFQVF | 2.03 | 3/3
EGDSLRYRYAN | GKNNLPS | SSRDSSGFQHF | 2.44 | 3/3
EGSSLRYYYAN | GKNNRPR | SSRDSSGFQVF | 2.07 | 3/3
EMDNLRYQYAN | GKNNRPS | SSRDSSGFQVF | 1.22 | 3/3
EGDSLRYYYAN | TKNNHPS | SSRDSSGFQVP | not detected | 0/3
EGDSLRYYYAN | GKNNLPC | SSRDSSDFQVF | 4.30 | 3/3
EGDSLRYYYAN | GKNNRPS | SFRDSSGFQGF | 4.52 | 1/3
EGDSLRYYYAN | KQNNRPS | SSRDSSGMQVF | 3.54 | 2/3
EGDKLRYCYAN | GKNNRPS | SSRDSSGAQVF | 3.17 | 1/3
EGDHLRYYYAN | GKNNRPS | SSVDSSGEQVF | 3.21 | 2/3
EGDSLRAYYAN | GKNNRPS | SPRDSSGFYVF | 4.04 | 1/3
EGDSVRYYYAN | GKNNRPS | SSRDSSGFQDF | not detected | 0/3
EGDSLRYYYAN | GKDNRPC | SSRDSSKFQVF | 5.52 | 1/3
EGDSLKYYYFN | GKNNRAS | SSRDSSGFQVF | 1.49 | 3/3
EGDSLRYEYAM | GKNNRPS | SSRDNSGFQVF | 2.25 | 3/3
NGDSLRYYYAR | GKNNLPS | SSRDSSGFQVF | not detected | 0/3
EGDSLRYYYAN | GKNNQPW | SSHDSSGFQVF | 5.62 | 1/3
EEDSLRYEYAN | GKNNRPE | SSRDSSGFQVF | 3.00 | 3/3
EGDSLRYGYAN | GKNNRIS | SSRDSKGFQVF | 0.95 | 3/3
EGDSLRCYYAN | WKNNIPS | SSRDSSGFQVF | 3.12 | 2/3
EGISLRYYRAN | GKNNRPS | SSRDSLGFQVF | 2.97 | 3/3
EGQSFRYYYAN | GKNNRPS | SYRDSSGFQVF | 2.98 | 3/3
EGDSLRYYYAN | GKNNRQS | FSRDSSGTQVF | 4.21 | 2/3
EGLSLRYYYAT | GKRNRPS | SSRDSSGFQVF | 2.30 | 3/3
EGDSLEYYYAN | QKNNRPS | SDRDSSGFQVF | 4.62 | 1/3
EGDSLRYYYAN | KKNNRAS | SSRDSSGFQVF | 4.37 | 1/3
EGDYLRYYYAN | GKNNQPS | SSRGSSGFQVF | 4.12 | 2/3
EGDSLRYYYAN | GKNNNPS | ANRDSSGFQVF | 3.58 | 1/3
EGDSLRYYYAN | GKNRRPS | SSRDSSWFQVW | 4.29 | 2/3
NGDSWRYYYPN | GKNNRPS | SSRDSSGFQVF | 3.03 | 3/3
EGDSLAYYYAN | GPNNRPS | SSRYSSGFQVF | 3.13 | 3/3
EADSLRYYGAN | GKNNRPS | SSRSSSGFQVF | 2.00 | 3/3
EGDMLRQYYAN | GKDNRPS | SSRDSSGFQVF | 3.49 | 3/3
EGDSWRYYYAS | GKNNRPS | SSRDSSGFCVF | 3.91 | 1/3

9 of these entries, quoted again:

| CDR-L1 | CDR-L2 | CDR-L3 | mean, log10 nM | replicates with signal |
|---|---|---|---|---|
| EGDSLRYYYAN | GKNNQPW | SSHDSSGFQVF | 5.62 | 1/3 |
| EGDSWRYYYAS | GKNNRPS | SSRDSSGFCVF | 3.91 | 1/3 |
| EGDSLRYYYAN | GKNNEPS | SSRDPEGFQVF | 4.10 | 1/3 |
| QGDSLRYSYAR | GKNNRPS | SSRDSSGFQVF | 1.23 | 3/3 |
| EPDSLRYYYAN | GKNNRPR | SSRDSDGFQVF | 3.64 | 2/3 |
| EGDSLRYYYAN | MKNNRPS | SSDDSSGFQHF | 3.87 | 2/3 |
| EGDSLRYYTQN | GKNNRPS | SSRDVSGFQVF | 4.12 | 1/3 |
| EGDSLRYYYYN | GKNNRPS | SSRDSICFQVF | 4.21 | 3/3 |
| KLDSLRYYYAN | KKNNRPS | SSRDSSGFQVF | not detected | 0/3 |